Assay results as given in patent US9096596B2 (Janssen Pharmaceutica NV, priority 2013, dated 2015).

By UniProt entry, the sequences of proteins in these tests, tags left out. Where a name states a change or a piece, a line headed by the entry shows the natural chain unless it says otherwise.
UniProt Q99572: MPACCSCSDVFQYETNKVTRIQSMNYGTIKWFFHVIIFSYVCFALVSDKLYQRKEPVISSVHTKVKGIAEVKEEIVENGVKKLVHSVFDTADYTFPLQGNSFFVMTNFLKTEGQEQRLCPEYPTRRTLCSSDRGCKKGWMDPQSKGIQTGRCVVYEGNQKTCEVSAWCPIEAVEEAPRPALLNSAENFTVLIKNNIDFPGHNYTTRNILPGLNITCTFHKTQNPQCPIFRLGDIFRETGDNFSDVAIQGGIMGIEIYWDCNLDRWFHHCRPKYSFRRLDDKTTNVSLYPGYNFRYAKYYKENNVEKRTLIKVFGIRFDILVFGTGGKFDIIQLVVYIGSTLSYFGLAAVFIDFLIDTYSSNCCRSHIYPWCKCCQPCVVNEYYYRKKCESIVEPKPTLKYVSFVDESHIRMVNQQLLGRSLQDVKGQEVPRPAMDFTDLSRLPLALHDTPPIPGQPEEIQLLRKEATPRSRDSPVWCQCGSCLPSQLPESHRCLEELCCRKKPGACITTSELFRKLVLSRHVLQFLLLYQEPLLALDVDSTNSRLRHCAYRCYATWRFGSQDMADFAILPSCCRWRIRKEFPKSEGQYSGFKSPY
UniProt Q64663: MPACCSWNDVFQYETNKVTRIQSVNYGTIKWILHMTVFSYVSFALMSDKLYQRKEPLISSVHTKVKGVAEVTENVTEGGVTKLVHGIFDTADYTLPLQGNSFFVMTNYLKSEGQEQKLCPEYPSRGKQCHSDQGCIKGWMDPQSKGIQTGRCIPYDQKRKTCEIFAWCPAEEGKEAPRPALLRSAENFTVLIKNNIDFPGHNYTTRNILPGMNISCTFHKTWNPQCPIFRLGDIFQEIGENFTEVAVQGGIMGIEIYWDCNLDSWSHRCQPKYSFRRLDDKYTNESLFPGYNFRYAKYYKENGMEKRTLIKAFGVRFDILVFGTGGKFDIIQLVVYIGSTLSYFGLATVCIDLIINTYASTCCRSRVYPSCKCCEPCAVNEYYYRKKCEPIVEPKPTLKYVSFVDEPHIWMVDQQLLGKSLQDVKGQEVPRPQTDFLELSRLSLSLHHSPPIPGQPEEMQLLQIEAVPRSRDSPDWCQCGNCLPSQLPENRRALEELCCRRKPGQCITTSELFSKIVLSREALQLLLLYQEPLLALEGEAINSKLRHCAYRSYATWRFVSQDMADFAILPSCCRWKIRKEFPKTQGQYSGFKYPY

Key:
[1] = biological target: T1, P2X7 (Homo sapiens (Human), UniProt Q99572); test: Radioligand binding, human P2X7-1321N1 cell membranes, tracer tritiated A-804598
Protocol: (§1) human or rat P2X7-1321 N1 cells were collected and frozen @ −80° C. On the day of the experiment, cell membrane preparations were made according to standard published methods. The total assay volume was 100 μl:10 μl compound (10×)+(b) 40 μl tracer (2.5×)+50 μl membrane (2×). The tracer used for the assay was tritiated A-804598. The compound can be prepared as described in the literature. […] The assay was terminated by filtration (GF/B filters pre-soaked with 0.3% PEI) and washed with washing buffer (Tris-HCl 50 mM). The IC50 generated in the binding assay was corrected for tracer concentration and affinity of the tracer to derive at the affinity (Ki) of the test compounds.

[2] = biological target: T1, P2X7; test: P2X7 antagonism in human whole blood (IL-1β release, ELISA); assay type: cell-based; conditions: IL-1β release in human blood, LPS 30 ng/ml + Bz-ATP 1 mM
Protocol: Human blood was collected using a blood donor program. […] Cells were incubated for an additional 1.5 hours. […] In Table 2, when the data cell has been left blank, it is intended to mean that the compound was not tested in that assay.

[3] = biological target: T2, rat P2X7 (Rattus norvegicus (Rat), UniProt Q64663); test: Ca2+ flux (FLIPR) in 1321N1 cells expressing recombinant rat P2X7 channel; assay type: cell-based; conditions: 250 μM BzATP, Calcium-4 dye
Protocol: (§2) 1321N1 cells expressing the recombinant human, rat or mouse P2X7 channel was cultured in HyQ DME/(HyClone/Dulbecco's Modified Eagle Medium) high glucose supplemented with 10% Fetal Bovine Serum (FBS) and appropriate selection marker. Cells were seeded at a density of 25000 cells/well (96-well clear bottom black walled plates) in 100 μl volume/well. On the day of the experiment, cell plates were washed with assay buffer, containing (in mM): 130 NaCl, 2 KCl, 1 CaCl2, 1 MgCl2, 10 HEPES, 5 glucose; pH 7.40 and 300 mOs. After the wash, cells were loaded with the Calcium-4 dye (Molecular Device) and incubated in the dark for 60 minutes. Test compounds were prepared at 250× the test concentration in neat DMSO. Intermediate 96-well compound plates were prepared by transferring 1.2 μL of the compound into 300 μL of assay buffer. A further 3× dilution occurred when transferring 50 μL/well of the compound plate to 100 μL/well in the cell plate. Cells were incubated with test compounds and dye for 30 minutes. Calcium dye fluorescence was monitored in FLIPR as the cells were challenged by adding 50 μL/well of BzATP (final concentration is 250 μM BzATP (human and rat) or 600 μM (mouse)). The fluorescence change was measured 180 seconds after adding the agonist.

[4] = biological target: T1, P2X7; test: Ca2+ flux (FLIPR) in 1321N1 cells expressing recombinant human P2X7 channel; assay type: cell-based; conditions: 250 μM BzATP, Calcium-4 dye
Protocol: as §2

[5] = biological target: T2, rat P2X7; test: Radioligand binding, rat P2X7-1321N1 cell membranes, tracer tritiated A-804598
Protocol: as §1

[6] = human P2X7-1321N1 membranes, 1 hour at 4° C., IC50 corrected for tracer concentration and affinity
[7] = rat P2X7-1321N1 membranes, 1 hour at 4° C., IC50 corrected for tracer concentration and affinity

| Ki [1, 6] [µM] | IC50 [3] [µM] | IC50 [4] [µM] | Ki [5, 7] [µM] | Ki [5] [µM] | Ki [1] [µM] | Compound | IC50 [2] [µM] |
| --- | --- | --- | --- | --- | --- | --- | --- |
| 0.0126 | 0.0024 | 0.0029 | – | – | – | Cc1nc2c(c(-c3ccn[nH]3)n1)C[C@@H](C)N(C(=O)c1ccc(Cl)c(F)c1Cl)C2 (single isomer, unassigned) [Example 71] | – |
| – | 0.649 | – | 0.0251 | – | – | O=C(c1cccc(C(F)(F)F)c1Cl)N1CCc2c(ncnc2-c2nccs2)C1 [Example 37, 7-{[2-Chloro-3-(trifluoromethyl)phenyl]carbonyl}-4-(1,3-thiazol-2-yl)-5,6,7,8-tetrahydropyrido[3,4-d]pyrimidine] | – |
| 0.0398 | – | 0.0158 | – | – | – | Cc1nc2c(c(-n3nccn3)n1)CCN(C(=O)c1cccc(C(F)(F)F)c1Cl)C2 [Example 47, 7-{[2-Chloro-3-(trifluoromethyl)phenyl]carbonyl}-2-methyl-4-(2H-1,2,3-triazol-2-yl)-5,6,7,8-tetrahydropyrido[3,4-d]pyrimidine] | > 10 |
| 0.0251 | – | 0.01 | – | – | – | Cc1nc2c(c(-c3ccn[nH]3)n1)CC(C)N(C(=O)c1cccc(C(F)(F)F)c1F)C2 (stereo not shown) [Example 74, (2,6-dimethyl-4-(1H-pyrazol-5-yl)-5,6-dihydropyrido[3,4-d]pyrimidin-7(8H)-yl)(2-fluoro-3-(trifluoromethyl)phenyl)methanone] | – |
| – | 1.38 | – | 0.0457 | – | – | O=C(c1cccc(Cl)c1Cl)N1CCc2c(ncnc2-c2nccs2)C1 [Example 38, 7-[(2,3-Dichlorophenyl)carbonyl]-4-(1,3-thiazol-2-yl)-5,6,7,8-tetrahydropyrido[3,4-d]pyrimidine] | – |
| 0.0178 | – | 0.0459 | – | – | – | Nc1nc2c(c(-c3ccn[nH]3)n1)CCN(C(=O)c1cccc(C(F)(F)F)c1Cl)C2 [Example 55, 7-{[2-Chloro-3-(trifluoromethyl)phenyl]carbonyl}-4-(1H-pyrazol-5-yl)-5,6,7,8-tetrahydropyrido[3,4-d]pyrimidin-2-amine] | – |
| 0.0126 | – | 0.0057 | – | – | – | CC1c2ncnc(-c3ccn[nH]3)c2CCN1C(=O)c1ccc(F)c(Cl)c1Cl (stereo not shown) [Example 118, (2,3-dichloro-4-fluorophenyl)(8-methyl-4-(1H-pyrazol-5-yl)-5,6-dihydropyrido[3,4-d]pyrimidin-7(8H)-yl)methanone] | – |
| 0.0126 | – | 0.0135 | – | – | – | Cc1nc2c(c(-c3ccn[nH]3)n1)CC(C)N(C(=O)c1cccc(Cl)c1Cl)C2 (stereo not shown) [Example 67, (2,3-dichlorophenyl)(2,6-dimethyl-4-(1H-pyrazol-5-yl)-5,6-dihydropyrido[3,4-d]pyrimidin-7(8H)-yl)methanone] | – |
| – | – | 0.0587 | – | – | 0.0251 | Cc1nc2c(c(-c3ccn[nH]3)n1)C[C@@H](C)N(C(=O)c1ccc(F)cc1Cl)C2 (single isomer, unassigned) [Example 91, (R*)-(2-chloro-4-fluorophenyl)(2,6-dimethyl-4-(1H-pyrazol-5-yl)-5,6-dihydropyrido[3,4-d]pyrimidin-7(8H)-yl)methanone] | – |
| 0.0794 | 0.0133 | 0.0164 | – | – | – | Cc1nc2c(c(-c3ccn[nH]3)n1)CC(C)N(C(=O)c1ccc(F)c(C(F)(F)F)c1Cl)C2 (stereo not shown) [Example 64, (2-chloro-4-fluoro-3-(trifluoromethyl)phenyl)(2,6-dimethyl-4-(1H-pyrazol-5-yl)-5,6-dihydropyrido[3,4-d]pyrimidin-7(8H)-yl)methanone] | – |
| 0.1 | 0.023 | 0.0824 | – | – | – | CC(C)c1nc2c(c(-c3ccn[nH]3)n1)CC(C)N(C(=O)c1cccc(C(F)(F)F)c1Cl)C2 (stereo not shown) [Example 101, (2-chloro-3-(trifluoromethyl)phenyl)(2-isopropyl-6-methyl-4-(1H-pyrazol-5-yl)-5,6-dihydropyrido[3,4-d]pyrimidin-7(8H)-yl)methanone] | – |
| 0.0251 | 0.02 | 0.0251 | – | – | – | Cc1nc2c(c(-c3ccn[nH]3)n1)CC(C)N(C(=O)c1ccc(F)c(Cl)c1Cl)C2 (stereo not shown) [Example 80, (2,3-dichloro-4-fluorophenyl)(2,6-dimethyl-4-(1H-pyrazol-5-yl)-5,6-dihydropyrido[3,4-d]pyrimidin-7(8H)-yl)methanone] | – |
| – | 0.0086 | 0.0059 | – | – | 0.0316 | C[C@@H]1c2ncnc(-c3ccn[nH]3)c2CCN1C(=O)c1ccc(F)c(C(F)(F)F)c1Cl (single isomer, unassigned) [Example 116, (R*)-(2-chloro-4-fluoro-3-(trifluoromethyl)phenyl)(8-methyl-4-(1H-pyrazol-5-yl)-5,6-dihydropyrido[3,4-d]pyrimidin-7(8H)-yl)methanone] | – |

Further lines, the compound ahead of its results:

| Compound | Ki [1, 6] [µM] | IC50 [3] [µM] | IC50 [4] [µM] | Ki [5, 7] [µM] | Ki [5] [µM] | Ki [1] [µM] | IC50 [2] [µM] |
| --- | --- | --- | --- | --- | --- | --- | --- |
| Cc1c(C(=O)N2CCc3c(ncnc3-c3ccn[nH]3)C2)cccc1C(F)(F)F [Example 10, 7-{[2-Methyl-3-(trifluoromethyl)phenyl]carbonyl}-4-(1H-pyrazol-5-yl)-5,6,7,8-tetrahydropyrido[3,4-d]pyrimidine] | 0.0309 | 1.01 | 0.0461 | 0.0219 | – | – | 2 |
| Cc1nc2c(c(-c3ccn[nH]3)n1)C[C@H](C)N(C(=O)c1ccc(Cl)cc1F)C2 (single isomer, unassigned) [Example 89, (S*)-(4-chloro-2-fluorophenyl)(2,6-dimethyl-4-(1H-pyrazol-5-yl)-5,6-dihydropyrido[3,4-d]pyrimidin-7(8H)-yl)methanone] | – | 0.0159 | – | – | 0.001 | – | – |
| Cc1nc2c(c(-c3ccn[nH]3)n1)CC(C)N(C(=O)c1ccc(Cl)cc1Cl)C2 (stereo not shown) [Example 83, (2,4-dichlorophenyl)(2,6-dimethyl-4-(1H-pyrazol-5-yl)-5,6-dihydropyrido[3,4-d]pyrimidin-7(8H)-yl)methanone] | 0.0316 | 0.0149 | 0.0017 | – | – | – | – |
| Cc1nc2c(c(-c3ccn[nH]3)n1)C[C@@H](C)N(C(=O)c1cccc(C(F)(F)F)c1Cl)C2 (single isomer, unassigned) [Example 58, (6R*)-7-{[2-Chloro-3-(trifluoromethyl)phenyl]carbonyl}-2,6-dimethyl-4-(1H-pyrazol-5-yl)-5,6,7,8-tetrahydropyrido[3,4-d]pyrimidine] | – | – | – | – | 0.0028 | 0.0158 | 0.16 |
| Cc1nc2c(c(-c3ccn[nH]3)n1)C[C@@H](C)N(C(=O)c1ccc(Cl)cc1Cl)C2 (single isomer, unassigned) [Example 84, (R*)-(2,4-dichlorophenyl)(2,6-dimethyl-4-(1H-pyrazol-5-yl)-5,6-dihydropyrido[3,4-d]pyrimidin-7(8H)-yl)methanone] | – | – | – | – | 0.0019 | – | – |
| Cc1nc2c(c(-c3ccn[nH]3)n1)CC(C)N(C(=O)c1cccc(C(F)(F)F)c1Cl)C2 (stereo not shown) [Example 56, 7-{[2-Chloro-3-(trifluoromethyl)phenyl]carbonyl}-2,6-dimethyl-4-(1H-pyrazol-5-yl)-5,6,7,8-tetrahydropyrido[3,4-d]pyrimidine] | 0.0372 | 0.0124 | 0.0143 | – | – | – | – |
| CC1c2ncnc(-c3ccn[nH]3)c2CCN1C(=O)c1ccc(Cl)c(F)c1Cl (stereo not shown) [Example 121] | 0.02 | 0.128 | 0.0106 | – | – | – | – |
| CCc1nc2c(c(-c3ccn[nH]3)n1)CC(C)N(C(=O)c1cccc(C(F)(F)F)c1Cl)C2 (stereo not shown) [Example 98, (2-chloro-3-(trifluoromethyl)phenyl)(2-ethyl-6-methyl-4-(1H-pyrazol-5-yl)-5,6-dihydropyrido[3,4-d]pyrimidin-7(8H)-yl)methanone] | 0.055 | 0.0149 | 0.0255 | – | – | – | – |
| CC1c2ncnc(-c3ccn[nH]3)c2CCN1C(=O)c1ccc(F)c(C(F)(F)F)c1Cl (stereo not shown) [Example 115, (2-chloro-4-fluoro-3-(trifluoromethyl)phenyl)(8-methyl-4-(1H-pyrazol-5-yl)-5,6-dihydropyrido[3,4-d]pyrimidin-7(8H)-yl)methanone] | 0.0316 | 0.0142 | 0.0139 | – | – | – | – |

Like-named read-outs stand apart in the source and are kept apart here.
